# Assay results taken from US20220226499A1, “Metabolite Delivery for Modulating Metabolic Pathways of Cells” (Arizona Board of Regents on Behalf of Arizona State …, priority 2019, published 2022).
# Tested on: healed skin
# Conditions: rank among groups
smiles,measurement,value
"O=C(O)CCC(=O)C(=O)O [soluble aKG, alpha-ketoglutarate]",ultimate tensile strength (UTS) and % strength as compared to the intact skin,lowest
